What was measured:
AAK1 (30-330) protein [1] = target: T1, AAK1 (30-330) protein (Homo sapiens, UniProt Q2M2I8); assay: CETSA test of binding ability to AAK1 protein (Western blot); conditions: tested form: free base
AAK1 = AAK1 (Homo sapiens, UniProt Q2M2I8); assay: Effect on AP2M1 phosphorylation in 293T cells co-transfected with AAK1 and AP2M1 (Western blot, anti-p-AP2M1); conditions: p-AP2M1 level, incubated 3 h, tested form: free base
AAK1 (30-330) protein [2] = target: T1, AAK1 (30-330) protein; assay: AAK1 kinase assay (ADP generated, detected by HPLC); conditions: 3.5 nM AAK1, 22 µM ATP, 25°C, 3 h; tested form: free base

By UniProt entry, the sequences of proteins in these tests, tags left out. Residues count along the entry.
UniProt Q2M2I8, 30-330 limits assumed: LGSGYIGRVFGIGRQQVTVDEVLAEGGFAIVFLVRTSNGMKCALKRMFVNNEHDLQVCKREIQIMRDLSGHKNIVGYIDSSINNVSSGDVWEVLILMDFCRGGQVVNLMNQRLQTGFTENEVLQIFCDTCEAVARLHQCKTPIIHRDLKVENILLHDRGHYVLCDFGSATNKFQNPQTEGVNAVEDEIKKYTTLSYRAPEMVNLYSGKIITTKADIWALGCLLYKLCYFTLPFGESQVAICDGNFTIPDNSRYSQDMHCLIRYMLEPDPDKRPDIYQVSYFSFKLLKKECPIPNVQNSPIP
UniProt Q2M2I8, whole entry: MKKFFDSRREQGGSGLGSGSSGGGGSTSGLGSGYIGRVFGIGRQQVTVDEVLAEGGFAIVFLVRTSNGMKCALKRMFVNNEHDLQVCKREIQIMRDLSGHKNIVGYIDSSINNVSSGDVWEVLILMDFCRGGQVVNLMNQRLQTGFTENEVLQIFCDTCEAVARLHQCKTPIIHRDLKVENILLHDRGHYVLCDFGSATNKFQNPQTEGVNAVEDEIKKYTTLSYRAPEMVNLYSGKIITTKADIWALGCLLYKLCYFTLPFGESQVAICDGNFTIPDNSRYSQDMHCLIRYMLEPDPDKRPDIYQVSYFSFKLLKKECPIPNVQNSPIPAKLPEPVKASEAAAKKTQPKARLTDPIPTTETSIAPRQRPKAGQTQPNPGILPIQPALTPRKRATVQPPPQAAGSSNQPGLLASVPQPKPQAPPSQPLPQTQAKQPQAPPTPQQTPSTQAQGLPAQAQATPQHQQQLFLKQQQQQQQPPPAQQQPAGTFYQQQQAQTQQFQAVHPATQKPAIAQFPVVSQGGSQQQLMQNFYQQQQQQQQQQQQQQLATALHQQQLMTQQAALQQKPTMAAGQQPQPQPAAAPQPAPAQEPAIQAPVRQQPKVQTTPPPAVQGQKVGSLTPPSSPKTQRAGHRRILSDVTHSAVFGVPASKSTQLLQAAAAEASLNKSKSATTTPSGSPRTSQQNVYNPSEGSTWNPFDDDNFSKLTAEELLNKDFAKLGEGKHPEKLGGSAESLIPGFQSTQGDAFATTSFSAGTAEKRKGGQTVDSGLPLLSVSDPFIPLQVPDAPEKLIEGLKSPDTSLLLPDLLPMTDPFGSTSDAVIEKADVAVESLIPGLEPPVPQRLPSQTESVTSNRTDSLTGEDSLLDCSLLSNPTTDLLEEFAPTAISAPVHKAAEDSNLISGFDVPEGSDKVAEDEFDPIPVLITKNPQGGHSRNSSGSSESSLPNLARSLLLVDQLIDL

SMILES	EC50 (AAK1 (30-330) protein [1])	IC50 (AAK1)	IC50 (AAK1 (30-330) protein [2])
COc1cnc2[nH]cc(-c3cnc(OC[C@](C)(N)CC(C)C)c(C(F)F)c3)c2c1	10 to 100 nM	10 to 100 nM	160 nM
CC(C)C[C@@](C)(N)COc1ccc(-c2c[nH]c3ncc(C#N)cc23)nc1C(F)F	10 to 100 nM	10 to 100 nM	102 nM
CC(C)C[C@@](C)(N)COc1ccc(-c2c[nH]c3ncc(F)cc23)nc1C(F)F	10 to 100 nM	10 to 100 nM	88.9 nM
CC(C)C[C@@](C)(N)COc1ncc(-c2c[nH]c3ncc(C(F)F)cc23)cc1C(F)F	100 to 1000 nM	10 to 100 nM	148 nM
CC(C)C[C@@](C)(N)COc1ncc(-c2c[nH]c3ncc(C(F)F)cc23)c(C(F)(F)F)n1	10 to 100 nM	10 to 100 nM	99.5 nM
CC(C)C[C@@](C)(N)COc1ccc(-c2c[nH]c3ncc(C(F)F)cc23)cc1C(F)(F)F	10 to 100 nM	10 to 100 nM	89.2 nM
C=C(C)CC(C)(N)COc1ccc(-c2c[nH]c3nccc(OC)c23)nc1C(F)F (stereo not drawn)	100 to 1000 nM	10 to 100 nM	99.6 nM
CC(C)C[C@@](C)(N)COc1ccc(-c2c[nH]c3ncc(C(F)(F)F)cc23)nc1C(F)F	100 to 1000 nM	10 to 100 nM	72.1 nM

Other lines, results leading:

EC50 (AAK1 (30-330) protein [1])	IC50 (AAK1)	IC50 (AAK1 (30-330) protein [2])	SMILES
100 to 1000 nM	10 to 100 nM	107 nM	CC(=O)Nc1cc(-c2ccc(OC[C@@](C)(N)CC3(F)COC3)c(C#N)n2)n2nccc2n1
10 to 100 nM	100 to 1000 nM	67.8 nM	CC(C)C[C@@](C)(N)COc1ccc(-c2c[nH]c3ncc(C(F)F)cc23)nc1C(F)F
100 to 1000 nM	100 to 1000 nM	96.7 nM	CC(C)C[C@](C)(N)COc1ncc(-c2c[nH]c3ccc(C(F)F)cc23)c(C(F)(F)F)n1
10 to 100 nM	100 to 1000 nM	113 nM	CC(C)C[C@](C)(N)COc1ncc(-c2c[nH]c3ncc(C(F)F)cc23)cc1C(F)F
10 to 100 nM	10 to 100 nM	124 nM	COc1cnc2[nH]cc(-c3cnc(OC[C@@](C)(N)CC(C)C)c(C(F)F)c3)c2c1
10 to 100 nM	10 to 100 nM	118 nM	CC(C)C[C@](C)(N)COc1ccc(-c2c[nH]c3ncc(C(F)(F)F)cc23)nc1C(F)F
10 to 100 nM	10 to 100 nM	78.4 nM	CC(C)C[C@@](C)(N)COc1ncc(-c2c[nH]c3ccc(C(F)F)cc23)c(C(F)(F)F)n1

— patent publication EP4692089A1, “NITROGEN-CONTAINING HETEROCYCLIC COMPOUND AS AAK1 INHIBITOR” (Alicorn Pharmaceutical Co., Ltd., priority 2023, dated 2024)
